Measurements taken from ChEMBL document CHEMBL4808148, “HDAC6 screening dataset using tau-based substrate in an enzymatic assay yields selective inhibitors and activators” (2021).
The strong results were mostly taken out for another list; the other results follow.

biological target: T1, Protein deacetylase HDAC6 (Homo sapiens) (UniProt Q9UBN7); conditions: at 10 µM
T1 sequence (whole entry): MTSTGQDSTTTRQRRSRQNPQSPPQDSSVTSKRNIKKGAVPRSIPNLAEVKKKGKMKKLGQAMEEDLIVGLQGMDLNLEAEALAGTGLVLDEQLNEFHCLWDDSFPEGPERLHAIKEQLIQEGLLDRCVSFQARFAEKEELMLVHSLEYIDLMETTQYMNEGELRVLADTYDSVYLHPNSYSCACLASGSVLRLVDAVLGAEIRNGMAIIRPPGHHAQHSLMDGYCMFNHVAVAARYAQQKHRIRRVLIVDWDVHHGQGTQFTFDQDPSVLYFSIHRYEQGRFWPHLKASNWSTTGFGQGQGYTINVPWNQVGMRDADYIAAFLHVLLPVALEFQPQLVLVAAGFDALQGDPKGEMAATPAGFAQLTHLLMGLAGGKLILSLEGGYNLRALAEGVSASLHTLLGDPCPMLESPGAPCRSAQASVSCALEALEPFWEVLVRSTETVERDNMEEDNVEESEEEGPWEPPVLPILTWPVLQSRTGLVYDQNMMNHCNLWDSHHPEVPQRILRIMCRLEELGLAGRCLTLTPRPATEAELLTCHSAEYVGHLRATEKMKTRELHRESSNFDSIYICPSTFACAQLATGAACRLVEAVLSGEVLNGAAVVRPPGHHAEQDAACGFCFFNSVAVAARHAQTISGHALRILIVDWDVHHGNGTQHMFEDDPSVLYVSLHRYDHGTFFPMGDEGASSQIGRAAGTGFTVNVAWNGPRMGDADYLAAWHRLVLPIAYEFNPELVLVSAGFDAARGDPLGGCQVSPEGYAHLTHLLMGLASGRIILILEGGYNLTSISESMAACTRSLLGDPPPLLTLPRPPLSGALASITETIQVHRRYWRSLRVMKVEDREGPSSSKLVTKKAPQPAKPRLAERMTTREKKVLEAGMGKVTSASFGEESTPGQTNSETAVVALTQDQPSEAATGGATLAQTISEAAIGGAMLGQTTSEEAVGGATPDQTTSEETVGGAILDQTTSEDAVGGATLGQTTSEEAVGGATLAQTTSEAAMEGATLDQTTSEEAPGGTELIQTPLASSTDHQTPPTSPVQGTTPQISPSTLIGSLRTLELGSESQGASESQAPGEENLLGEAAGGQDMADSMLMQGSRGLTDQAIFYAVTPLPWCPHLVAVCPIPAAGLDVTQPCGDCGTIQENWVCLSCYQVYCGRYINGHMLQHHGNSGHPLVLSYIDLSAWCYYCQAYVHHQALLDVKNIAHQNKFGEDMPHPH

Structure (SMILES) | inhibition
Clc1ccc(N2CCN(Cc3c[nH]c4ncccc34)CC2)cc1 | -8.35%
